Chains of the proteins cited; added tags and fusions are not shown. Residues count along the entry.
UniProt P35968, 786-1356: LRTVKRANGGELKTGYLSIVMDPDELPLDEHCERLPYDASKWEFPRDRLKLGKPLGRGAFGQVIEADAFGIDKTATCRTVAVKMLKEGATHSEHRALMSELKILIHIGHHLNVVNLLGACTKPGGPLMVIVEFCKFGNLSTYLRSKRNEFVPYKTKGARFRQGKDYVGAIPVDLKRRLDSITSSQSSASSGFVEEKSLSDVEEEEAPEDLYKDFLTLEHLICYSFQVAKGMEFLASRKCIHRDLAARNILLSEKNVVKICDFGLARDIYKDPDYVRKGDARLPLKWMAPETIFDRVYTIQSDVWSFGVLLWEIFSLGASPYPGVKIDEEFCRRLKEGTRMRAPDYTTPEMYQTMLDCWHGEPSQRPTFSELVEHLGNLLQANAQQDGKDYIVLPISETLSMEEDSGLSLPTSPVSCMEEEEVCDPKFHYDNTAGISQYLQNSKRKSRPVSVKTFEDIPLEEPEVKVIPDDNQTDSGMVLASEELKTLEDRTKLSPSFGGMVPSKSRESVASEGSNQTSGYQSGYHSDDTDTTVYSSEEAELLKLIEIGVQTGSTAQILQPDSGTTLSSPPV
UniProt P35968, 20-1356: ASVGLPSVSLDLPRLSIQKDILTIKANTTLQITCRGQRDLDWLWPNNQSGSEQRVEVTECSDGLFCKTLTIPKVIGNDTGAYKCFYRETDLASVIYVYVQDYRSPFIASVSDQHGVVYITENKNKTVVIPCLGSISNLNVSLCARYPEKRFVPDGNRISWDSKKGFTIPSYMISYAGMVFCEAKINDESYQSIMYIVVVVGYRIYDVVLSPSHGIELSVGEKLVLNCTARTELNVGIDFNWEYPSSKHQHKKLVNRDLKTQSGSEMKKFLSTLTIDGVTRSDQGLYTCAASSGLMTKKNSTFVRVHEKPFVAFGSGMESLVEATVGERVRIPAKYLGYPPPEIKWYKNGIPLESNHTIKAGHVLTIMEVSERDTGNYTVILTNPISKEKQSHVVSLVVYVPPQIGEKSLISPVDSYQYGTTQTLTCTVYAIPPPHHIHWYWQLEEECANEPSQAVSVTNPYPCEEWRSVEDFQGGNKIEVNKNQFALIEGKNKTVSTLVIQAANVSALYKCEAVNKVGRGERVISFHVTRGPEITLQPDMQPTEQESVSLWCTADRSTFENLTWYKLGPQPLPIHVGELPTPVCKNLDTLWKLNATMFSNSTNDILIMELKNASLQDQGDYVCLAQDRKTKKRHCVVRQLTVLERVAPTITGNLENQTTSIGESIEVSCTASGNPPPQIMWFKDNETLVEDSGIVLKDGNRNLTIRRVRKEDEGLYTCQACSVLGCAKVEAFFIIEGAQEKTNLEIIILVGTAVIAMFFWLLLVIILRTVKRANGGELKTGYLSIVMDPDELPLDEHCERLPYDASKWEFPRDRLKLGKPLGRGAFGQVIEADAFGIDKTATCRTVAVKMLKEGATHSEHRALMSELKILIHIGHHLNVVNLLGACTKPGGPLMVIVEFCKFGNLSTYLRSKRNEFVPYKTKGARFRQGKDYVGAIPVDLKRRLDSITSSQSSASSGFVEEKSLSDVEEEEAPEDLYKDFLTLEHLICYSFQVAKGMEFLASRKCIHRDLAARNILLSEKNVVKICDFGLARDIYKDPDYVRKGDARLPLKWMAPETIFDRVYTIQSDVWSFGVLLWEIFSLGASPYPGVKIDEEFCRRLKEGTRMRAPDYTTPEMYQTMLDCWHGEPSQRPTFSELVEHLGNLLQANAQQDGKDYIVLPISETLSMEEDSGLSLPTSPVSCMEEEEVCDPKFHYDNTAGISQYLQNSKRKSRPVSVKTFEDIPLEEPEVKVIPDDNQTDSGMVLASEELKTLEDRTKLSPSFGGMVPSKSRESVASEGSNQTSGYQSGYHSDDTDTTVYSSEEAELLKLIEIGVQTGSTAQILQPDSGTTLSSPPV
UniProt P09619, 554-1106: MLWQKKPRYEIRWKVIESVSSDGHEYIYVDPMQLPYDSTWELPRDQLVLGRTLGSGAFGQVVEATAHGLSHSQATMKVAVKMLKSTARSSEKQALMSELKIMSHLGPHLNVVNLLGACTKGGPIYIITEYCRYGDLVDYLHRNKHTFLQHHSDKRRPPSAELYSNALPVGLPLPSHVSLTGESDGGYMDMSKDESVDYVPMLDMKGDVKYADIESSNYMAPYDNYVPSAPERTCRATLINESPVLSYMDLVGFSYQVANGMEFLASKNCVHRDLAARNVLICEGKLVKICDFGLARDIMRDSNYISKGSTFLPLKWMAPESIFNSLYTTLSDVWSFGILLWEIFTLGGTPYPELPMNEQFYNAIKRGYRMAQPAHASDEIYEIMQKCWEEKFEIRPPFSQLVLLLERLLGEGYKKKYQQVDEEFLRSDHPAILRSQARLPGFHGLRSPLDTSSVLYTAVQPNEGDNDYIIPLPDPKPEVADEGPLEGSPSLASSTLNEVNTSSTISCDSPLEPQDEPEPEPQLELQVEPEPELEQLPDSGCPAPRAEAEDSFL
UniProt P09619, 33-1106: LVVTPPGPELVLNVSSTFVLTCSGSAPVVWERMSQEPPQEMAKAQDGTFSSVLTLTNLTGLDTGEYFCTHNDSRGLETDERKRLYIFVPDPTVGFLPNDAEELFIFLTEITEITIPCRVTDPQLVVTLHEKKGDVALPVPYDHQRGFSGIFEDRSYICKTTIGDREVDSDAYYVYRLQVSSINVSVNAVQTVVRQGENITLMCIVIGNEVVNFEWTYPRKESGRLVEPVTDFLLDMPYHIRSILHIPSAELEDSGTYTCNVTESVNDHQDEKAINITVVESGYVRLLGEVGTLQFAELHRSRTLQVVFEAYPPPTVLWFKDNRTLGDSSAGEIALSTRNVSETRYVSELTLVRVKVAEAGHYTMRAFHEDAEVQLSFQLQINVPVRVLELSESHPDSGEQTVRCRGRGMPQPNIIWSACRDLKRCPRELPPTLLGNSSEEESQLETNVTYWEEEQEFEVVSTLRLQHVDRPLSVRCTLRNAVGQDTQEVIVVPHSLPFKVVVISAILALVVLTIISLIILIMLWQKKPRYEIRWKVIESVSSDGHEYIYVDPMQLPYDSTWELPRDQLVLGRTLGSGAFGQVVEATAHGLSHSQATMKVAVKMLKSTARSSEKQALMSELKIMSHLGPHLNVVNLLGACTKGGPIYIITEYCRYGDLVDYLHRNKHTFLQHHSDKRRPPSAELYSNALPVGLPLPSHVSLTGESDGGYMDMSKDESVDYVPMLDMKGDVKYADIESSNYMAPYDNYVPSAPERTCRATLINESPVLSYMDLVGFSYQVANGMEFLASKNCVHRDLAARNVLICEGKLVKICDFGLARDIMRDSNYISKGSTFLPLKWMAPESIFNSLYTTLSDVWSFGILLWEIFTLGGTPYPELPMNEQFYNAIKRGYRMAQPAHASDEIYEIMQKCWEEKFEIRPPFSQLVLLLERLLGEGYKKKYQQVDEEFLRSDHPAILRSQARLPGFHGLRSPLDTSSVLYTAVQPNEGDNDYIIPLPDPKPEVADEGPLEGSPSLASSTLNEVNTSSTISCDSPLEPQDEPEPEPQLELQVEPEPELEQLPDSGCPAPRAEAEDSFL

In patent US9266869B2, “Substituted dialkyl(oxido)-lambda4-sulfanylidene nicotinamide derivatives as kinase inhibitors” (Allergan, Inc., priority 2013, dated 2016):

Experiments:
VEGFR2 (KDR) = VEGFR2 (KDR) (Homo sapiens (Human), UniProt P35968); experiment: VEGFR2 Kinase Assay; format: biochemical; details: purified cytoplasmic domain KDR protein, 2.7 μM ATP; read-out: VEGFR2 Enzyme Assay (IC50 nM)
Method: VEGFR2 Kinase Assay Biochemical KDR kinase assays were performed in 96 well microtiter plates that were coated overnight with 75 μg/well of poly-Glu-[…]:1) in 10 mM Phosphate Buffered Saline (PBS), pH 7.4. […] Reactions were carried out in 100 μL reaction volumes containing 2.7 μM ATP in kinase buffer (50 mM Hepes buffer pH 7.4, 20 mM MgCl2, 0.1 mM MnCl2 and 0.2 mM Na3VO4). […] Reactions were initiated by the addition 20 ul per well of kinase buffer containing 200-300 ng purified cytoplasmic domain KDR protein (BPS Bioscience, San Diego, Calif.). Following a 15 minute incubation at 30° C., the reactions were washed 2 mls per well PBS-T. 100 μl of a monoclonal anti-phosphotyrosine antibody-peroxidase conjugate diluted 1:10,000 in PBS-T was added to the wells for 30 minutes. Following a 2 mls per well wash with PBS-Tween-20, 100 μl of 0-Phenylenediamine Dihydrochloride in phosphate-citrate buffer, containing urea hydrogen peroxide, was added to the wells for 7-10 minutes as a colorimetric substrate for the peroxidase. The reaction was terminated by the addition of 100 μl of 2.5N H2SO4 to each well and read using a microplate ELISA reader set at 492 nm. IC50 values for compound inhibition were calculated directly from graphs of optical density (arbitrary units) versus compound concentration following subtraction of blank values.

VEGFR2 = VEGFR2 (Homo sapiens (Human), UniProt P35968); experiment: VEGFR2 Cellular Assay (VEGF induced intracellular calcium, FLIPR, HUVEC); format: cell-based; details: VEGF165 stimulation (10 ng/mL)
Method: (§1) VEGFR2 Cellular Assay Automated FLIPR (Fluorometric Imaging Plate Reader) technology was used to screen for inhibitors of VEGF induced increases in intracellular calcium levels in fluorescent dye loaded endothelial cells. HUVEC (human umbilical vein endothelial cells) (Clonetics) were seeded in 384-well fibronectin coated black-walled plates overnight @ 37° C./5% CO2. Cells were loaded with calcium indicator Fluo-4 for 45 minutes at 37° C. Cells were washed 2 times (Elx405, Biotek Instruments) to remove extracellular dye. For screening, cells were pre-incubated with test agents for 30 minutes, at a single concentration (10 uM) or at concentrations ranging from 0.0001 to 10.0 uM followed by VEGF165 stimulation (10 ng/mL). Changes in fluorescence at 516 nm were measured simultaneously in all 384 wells using a cooled CCD camera. Data were generated by determining max-min fluorescence levels for unstimulated, stimulated, and drug treated samples. IC50 values for test compounds were calculated from % inhibition of VEGF stimulated responses in the absence of inhibitor.

PDGFRβ [1] = target: T1, PDGFRβ (Homo sapiens (Human), UniProt P09619); experiment: PDGFRβ Kinase Assay; format: biochemical; details: purified cytoplasmic domain PDGFR-b protein, 36 μM ATP; read-out: PDGFRβ Enzyme Assay (IC50 nM)
Method: Biochemical PDGFRβ kinase assays were performed in 96 well microtiter plates that were coated overnight with 75 μg of poly-Glu-Tyr (4:1) in 10 mM Phosphate Buffered Saline (PBS), pH 7.4. The coated plates were washed with 2 mls per well PBS+0.05% Tween-20 (PBS-T), blocked by incubation with PBS containing 1% BSA, then washed with 2 mls per well
PBS-T prior to starting the reaction. Reactions were carried out in 100 μL reaction volumes containing 36 μM ATP in kinase buffer (50 mM Hepes buffer pH 7.4, 20 mM MgCl2, 0.1 mM MnCl2 and 0.2 mM Na3VO4). Test compounds were reconstituted in 100% DMSO and added to the reaction to give a final DMSO concentration of 5%. Reactions were initiated by the addition 20 ul per well of kinase buffer containing 200-300 ng purified cytoplasmic domain PDGFR-b protein (Millipore). Following a 60 minute incubation at 30° C., the reactions were washed 2 mls per well PBS-T. 100 μl of a monoclonal anti-phosphotyrosine antibody-peroxidase conjugate diluted 1:10,000 in PBS-T was added to the wells for 30 minutes. […] The reaction was terminated by the addition of 100 μl of 2.5N H2SO4 to each well and read using a microplate ELISA reader set at 492 nm. IC50 values for compound inhibition were calculated directly from graphs of optical density (arbitrary units) versus compound concentration following subtraction of blank values.

PDGFRβ [2] = target: T1, PDGFRβ; experiment: PDGFRβ Cellular Assay (PDGF-induced intracellular calcium, FLIPR, NHDF-Ad); format: cell-based; details: PDGF-BB stimulation (30 ng/mL)
Method: as §1, with “Automated” for “VEGFR2 Cellular Assay Automated”, “of PDGF-induced” for “of VEGF induced”, “[…]. NHDF-Ad (Normal Human Dermal Fibroblasts, Adult; Lonza)” for “cells. HUVEC (human umbilical vein endothelial cells) (Clonetics)”, “by PDGF-BB” for “by VEGF165”, “stimulation (30” for “stimulation (10”, “of PDGF-BB” for “of VEGF”

Row | IC50 (VEGFR2 (KDR)) [nM] | IC50 (VEGFR2) [nM] | IC50 (PDGFRβ [1]) [nM] | IC50 (PDGFRβ [2]) [nM] | SMILES
1 | 2 | 6 | 6 |  | Cc1ccoc1C(=O)Nc1cccc(C#Cc2cncc(C(=O)N=S(C)(C)=O)c2)c1 [Example 2, N-[Dimethyl(oxido)-λ^4-sulfanylidene]-5-({3-[(3-methyl-2-furoyl)amino]phenyl}ethynyl)nicotinamide]
2 | 7 | 5 | 7 | 10 | Cc1ccc(F)c(C(=O)Nc2cccc(C#Cc3cc(C(=O)N=S(C)(C)=O)cnc3N)c2)c1 [Example 6]
